In ChEMBL document CHEMBL4130504, “Discovery of new indomethacin-based analogs with potentially selective cyclooxygenase-2 inhibition and observed diminishing to PGE2 activities” (Eur J Med Chem, 2017):

Tested on: Rattus norvegicus
Assay: Ulcerogenicity in albino rat assessed as at 30 umol/kg, po administered daily for 3 successive days in two equal doses at 0 and 12 hrs measured at 6 hrs post last dose by magnifying lens based assay relative to control
Assay type: toxicity, organism-based
Conditions: in vivo

COc1ccc2c(c1)c(CC(=O)O)c(C)n2C(=O)c1ccc(Cl)cc1 [INDOMETHACIN]
Activity: 100%
